PubChem BioAssay AID455 (Sanford-Burnham Center for Chemical Genomics, 2006)
This is a selection; strong and weak results do not stand in their true shares. Active and inactive are the calls of the source.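 Rule for the calls: active = a compound raising TNF-alpha-driven VCAM-1 surface staining, with its hit status upheld on visual or statistical review; inactive = the rest, including hits rejected on review.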

assay: enhancers of VCAM-1 display on endothelial cells, cell-based, plate reader, pooled HUVEC, TNFa stimulus (AID 455); details: HUVEC TNFa-induced VCAM-1 immunofluorescence

| Compound | outcome |
| --- | --- |
| CP(=S)(Nn1cnnc1)Oc1ccccc1 (stereo not given) | inactive |
| Cc1ccc(C)c(NP(C)(=O)Oc2ccccc2)c1 (stereo not given) | inactive |
| CN(C)CCOC(=O)C(O)(c1ccccc1)C1CCCCC1 (stereo not given) | inactive |
| CP(=O)(Nc1ccc2c(c1)OCCO2)Oc1ccccc1 (stereo not given) | inactive |
| CP(=O)(Nc1ccccn1)Oc1ccccc1 (stereo not given) | inactive |
